Tested on: T1, tubulin colchicine binding site
T1 construct: […]; other: SPA
Experiment: [3H]-colchicine competition-binding scintillation proximity assay
Details: SPA

COc1ccc(-c2nc(C(=O)c3ccc(F)cc3)c[nH]2)cc1 [12cb, (4-fluorophenyl)(2-(4-methoxyphenyl)-1H-imidazol-4-yl)methanone]
competition for the tubulin colchicine binding site (in words): competitively bound

— US9334242B2, “Compounds for treatment of cancer” (GTX, INC., priority 2010, dated 2016)
